ChEMBL document CHEMBL1134287, “Design and pharmacological activity of phosphinic acid based NAALADase inhibitors” (J Med Chem, 2001)

The chains behind the UniProt entries cited, without tags or fusion partners.
UniProt P70627, whole entry: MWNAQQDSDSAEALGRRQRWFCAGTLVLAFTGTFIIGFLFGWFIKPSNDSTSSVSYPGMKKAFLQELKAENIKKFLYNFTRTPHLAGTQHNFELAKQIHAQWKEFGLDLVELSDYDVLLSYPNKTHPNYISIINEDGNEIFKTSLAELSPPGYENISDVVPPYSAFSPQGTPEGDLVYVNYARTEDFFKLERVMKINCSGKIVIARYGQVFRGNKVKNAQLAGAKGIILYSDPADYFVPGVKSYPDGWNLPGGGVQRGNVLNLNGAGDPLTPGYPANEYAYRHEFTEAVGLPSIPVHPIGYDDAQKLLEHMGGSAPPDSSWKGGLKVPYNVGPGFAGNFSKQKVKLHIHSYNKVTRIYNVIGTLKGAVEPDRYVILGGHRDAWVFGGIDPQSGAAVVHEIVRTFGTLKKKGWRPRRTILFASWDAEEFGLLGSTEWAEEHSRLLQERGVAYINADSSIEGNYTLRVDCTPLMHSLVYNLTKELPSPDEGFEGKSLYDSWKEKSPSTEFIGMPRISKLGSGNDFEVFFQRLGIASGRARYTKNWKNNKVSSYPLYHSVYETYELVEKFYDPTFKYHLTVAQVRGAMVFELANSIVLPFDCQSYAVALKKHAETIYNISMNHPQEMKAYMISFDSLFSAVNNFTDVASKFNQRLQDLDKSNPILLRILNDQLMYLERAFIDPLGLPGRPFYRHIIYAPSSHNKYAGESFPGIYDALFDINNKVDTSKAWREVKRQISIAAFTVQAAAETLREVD

Target: Glutamate carboxypeptidase 2 (Rattus norvegicus, UniProt P70627)
Experiment: Inhibitory concentration against rat brain NAALADase (Folate hydrolase)
Outline: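 IC50 values were determined by a method described elsewhere, from two to four independent determinations each. The values refer to racemic material.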

Which IC50 does the source give for `O=C(O)CCC(CP(=O)(O)CNc1ccccc1)C(=O)O` (stereo unspecified) here?
The IC50 was 4 nM.
